This test relates to mouse NK cells. The test can be described thus: IFNγ produced by NK cells from tumor-bearing mice with or without etoposide chemotherapy (ELISA). The following applies: reduced Stat4; mouse IL-12 2 ng/ml or human IL-2 50 units/ml, lunasin 20 μM; 1 day. In kind it is cell-based. The method, then:
FIG. 8 IFNg produced by NK cells from tumor-bearing mice with or without chemotherapy. Mouse NK cells were positively selected from spleens of tumor-bearing mice with (+Eto) or without (−Eto) chemotherapeutic drug etoposide. Isolated NK cells were stimulated with mouse IL-12 at 2 ng/ml with (+) or without (−) lunasin peptide (A) or human IL-2 at 50 units/ml with (+) or without (−) lunasin at 20 μM (B). The production of IFNγ in the supernatant after 1 day of stimulation was determined using ELISA. Results are presented as mean±SD from 3 mice. ND is not detectable.
We previously reported that heavily-treated NHL patients acquired STAT4 deficiency as a consequence of chemotherapy, which contributes to impaired IFNγ production following IL-12immunotherapy. Since IL-2 mediates its biological function independent of STAT4 {Lin. 2000 #648} and lunasin works synergistically with IL-2 (FIGS. 1 and 3), we wanted to test whether IL-2 alone or the combination of lunasin and IL-2 can circumvent the deficiency of IFNγ produced by NK cells that are refractory to IL-12 stimulation due to chemotherapy-induced STAT4 deficiency. In our mouse model reduced Stat4 was found in NK cells from tumor-bearing mice following chemotherapy with etoposide.
For orientation: In an ELISA, binding on a coated surface is turned into a signal by an enzyme label.

Turning to IL-2, the “IFNγ production by NK cells from tumor-bearing mice following chemotherapy (+etoposide)” value is “undetectable levels of IFNγ production”.

These data come from patent US9173923B2, “Modulating innate immune cell activity by lunasin and selected cytokines” (Indiana University Research & Technology Corporation, priority 2011, dated 2015).
